Measurements taken from PubChem BioAssay AID1347428 (National Center for Advancing Translational Sciences (NCATS), 2020).
Where “and” joins values, the source holds several entries; their conditions need not be identical. Equal entries are not always repeated. The list shows a part of the results, in another mix than the full data. Records with an inconclusive call do not appear. Calls of active or inactive are those of the source. Calls come from the whole dose curve; as a rule, active = well fitted inhibition curve with a large enough effect; inconclusive = small, poorly fitted or top-dose-only effect; inactive = no such curve, though single readings can be large or run the other way.

By UniProt entry, the sequences of proteins in these tests, tags left out. Where a name states a change or a piece, a line headed by the entry shows the natural chain unless it says otherwise.
UniProt Q9GZX7: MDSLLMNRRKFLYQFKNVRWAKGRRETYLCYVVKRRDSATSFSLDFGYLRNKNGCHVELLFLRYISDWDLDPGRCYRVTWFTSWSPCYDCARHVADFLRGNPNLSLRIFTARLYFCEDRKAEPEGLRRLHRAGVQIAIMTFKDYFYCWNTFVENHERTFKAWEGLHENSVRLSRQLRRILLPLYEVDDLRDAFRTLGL

target: Single-stranded DNA cytosine deaminase (Homo sapiens) (UniProt Q9GZX7); assay: Primary qHTS assay for inhibitors of Activation Induced Cytidine Deaminase (AID): AID signal; details: AID deamination FRET fluorescence, UDG-coupled, 4 h; at 115 µM (top of the series); note: nearly all actives have a fitted effect of over 25% in size
Text: Assay Provider (PI) Patricia Gearhart Ph.D.
National Institute on Aging
National Institute of Health (NIH), Bethesda, MD
Assay Provider (PI) Rahul Kohli Ph.D.
Perelman School of Medicine
University of Pennsylvania, Philadelphia, PA
Activation-Induced Deaminase (AID) is a cytosine deaminase which converts cytosine into uracil within stretches of ssDNA. The presence of uracil in DNA initiates a cascade of mutagenic DNA repair to introduce point mutations and DNA double strand breaks. Specific targeting of AID to the immunoglobulin heavy chain loci (Igh) promotes mutagenesis in the antibody variable region for somatic hypermutation (SHM) or switch regions leading to class switch recombination (CSR). However, AID also plays a role in accumulating unnecessary mutations across the genome. Mis-targeting of AID results in the initiation of tumor development and leads to greater drug resistance among cancer cells when continually expressed. To identify an AID inhibitor, a small molecule library will be screened in collaboration with NCATS core facility at NIH. To confirm biological function, inhibitors will be examined in an in vitro murine B-cell activation assay and subsequent secondary validation screens. Top molecules will be further screened to identify inhibitory efficacy against a wild type primary splenocytes assay. Using these approaches, we hope to identify a small molecule with great efficacy and low toxicity for use as a molecular probe to further characterize AID's intricacies, or even as a therapeutic.
A FRET based analysis of cytosine deamination, was developed to identify potential inhibitors of AID catalytic activity. This screen has two signal output, Read 1 evaluates the AID inhibition response. The second readout (Read 2) evaluates UDG response and is uses as a counterscreen to exclude false positive inhibitors. Inhibition in AID and inactivity in the UDG signal is the desired outcome for this assay.
SEQUENCE No. (e.g., 1, 2, 3, etc.); […] (e.g., Cells, Incubation, Reagent, etc.); VALUE; DESCRIPTION
1a; Reagent; 3 uL; [4/3x] 1 uM AID/2.67 U/mL UDG
1b; Reagent; 3 uL; 2 U/mL UDG
1c; Reagent; 3 uL; 1 uM AID
2a; Compound; 46 nL; Follow-up plates (0.64 uM - 10 mM)
2b; Control; 46 nL; ATA ([…] - 10 mM)
3; Time; 10 min; incubation at room temperature
5; Time; 4 hr; incubation at room temperature
6; Reagent; 4 uL; [2x] 250 mM NaOH
7; Time; 15 sec; centrifuge at 1000 rpm
8; Time; 30 min; incubation at room temperature
9a; Detection; fluorescence (Read 1: AID); EnVision (PerkinElmer) plate reader, 540 excitation and 590 emission filters
9b; Detection; fluorescence (Read 2: UDG); EnVision (PerkinElmer) plate reader, 560 excitation and 665 emission filters
NOTES (numbers refer to sequence above)
1a; Reagents were dispensed in a medium-binding black solid-bottom Greiner plates (789176F) using a BioRptr liquid dispenser. Dispense 3 uL of [4/3x] 1 uM AID (provided by Kohli lab) and [4/3x] 2 U/mL UDG (NEB M0280L) into columns 1, 2, 5 to 48.
1b; Dispense 3 uL of [4/3x] 2 U/mL UDG into column 3.
1c; Dispense 3 uL of [4/3x] 1 uM AID into column 4.
2a; Compound (7-points [uM] (0.64; 3.2; 16; 80; 400; 2,000; 10,000; 20,000) double pin-transferred (Dip Factor = 2) using the Kalypsys (Wako USA) pintool equipped with a 1536 pinhead for a final concentration range of 7.32 nM - 114 uM.
2b; 10 mM Aurintricarboxylic Acid (Sigma A1895) (ATA, 8-point, n = 2, 1:2.5 dilution in column 2) double pin-transferred (Dip Factor = 2) using the Kalypsys (Wako USA) pintool equipped with a 1536 pinhead for a [final] range of 186 nM - 114 uM.
3; Room temperature incubation.
4; Dispense 1 uL of substrate mixture from the Kohli lab [4x] […] DJC20 and [4x] 250 nM DJC23 into columns 1 to 48 .
5; Room temperature incubation.
6; Dispense 4 uL of substrate mixture [2x] 250 mM NaOH into columns 1 to 48.
7; Centrifugation step to remove bubbles.
8; Room temperature incubation
9a; Fluorescence signal (column label AID) was read using the EnVision plate reader. […]
% is set by controls: 0 for no effect and ±100 for the full control effect.

Row | Compound | activity change, negative = inhibition
1 | CN(C(=O)Cc1ccccc1)[C@@H]1CC[C@]2(CCCO2)C[C@H]1N1CCCC1 | inactive: 3.85%
2 | Cc1ccc(C(=O)NC(Sc2ccccc2)C(Cl)(Cl)Cl)cc1 (configuration not stated) | inactive: 2.56%
3 | BrCC1CN=C(Nc2ccccc2)S1 (configuration not stated) | inactive: -5.7%
4 | Fc1ccc(NC2=NCC(CI)S2)c(F)c1 (configuration not stated) | inactive: 7.8%
5 | CN(C(=O)Cc1ccc(Cl)c(Cl)c1)[C@@H]1CC[C@]2(CCCO2)C[C@H]1N1CCCC1 | inactive: -2.75%
6 | NNc1ccc([N+](=O)[O-])cc1[N+](=O)[O-] | inactive: 1.52%
7 | Cc1ccc(C(=O)NC(Sc2ccc(Cl)cc2)C(Cl)(Cl)Cl)cc1 (configuration not stated) | inactive: 1.39%
8 | ClCCNC1C2CC3CC(C2)CC1C3 (configuration not stated) | inactive: -8.75%
9 | O=C(/C=C/c1ccccc1)NC(Sc1ccc(Cl)cc1)C(Cl)(Cl)Cl (configuration not stated) | inactive: -6.87%
10 | Cc1cccc(C(=O)NC(Sc2ccccc2)C(Cl)(Cl)Cl)c1 (configuration not stated) | inactive: 0.931%
11 | Clc1cccc(NC2=NCC(CBr)S2)c1 (configuration not stated) | inactive: 12.8%
12 | O=C(NC(Sc1ccccc1)C(Cl)(Cl)Cl)c1ccc(Cl)cc1 (configuration not stated) | inactive: -5.47%
13 | Fc1ccc(CNC2=NCC(CBr)S2)cc1 (configuration not stated) | inactive: 0.512%
14 | O=C(NC(Sc1ccc(Cl)cc1)C(Cl)(Cl)Cl)c1ccccc1 (configuration not stated) | inactive: -0.0164%
15 | CN(C(=O)Cc1ccc(Cl)c(Cl)c1)[C@H]1CCCC[C@@H]1N1CCCC1 | inactive: -1.72% and inactive: -1.41%
16 | BrCCNCCc1ccncc1 | inactive: 13.1%
17 | CN(C(=O)Cc1ccc(Cl)c(Cl)c1)[C@@H]1CCCC[C@@H]1N1CCCC1 | inactive: -9.87%
